# Apparent affinities of Ab-14 variants for a coronavirus HR2 peptide

Binding partner: SARS-CoV-2 spike HR2 peptide, sequence PDVDLGDISGINAS.

Ab-14 is the parent antibody, in scFv form: VH, then three GGGGS repeats, then VL. The heavy chain is unchanged in all variants.
VH: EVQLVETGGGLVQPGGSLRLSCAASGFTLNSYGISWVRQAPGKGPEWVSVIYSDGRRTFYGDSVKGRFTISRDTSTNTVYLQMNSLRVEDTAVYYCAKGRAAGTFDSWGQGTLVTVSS
VL: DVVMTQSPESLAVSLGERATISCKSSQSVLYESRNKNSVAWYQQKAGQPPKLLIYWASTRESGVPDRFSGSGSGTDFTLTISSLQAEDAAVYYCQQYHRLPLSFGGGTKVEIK

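The parent was found by panning a naive human phage display library on the peptide. Designed CDR sequences, proposed from the first random library and measured here. Group labels follow the data file (Ctrl: baseline library sampled from a position-specific scoring matrix, with some repeated check sequences; En: ensemble of fine-tuned language models; GP: Gaussian process model; HC: hill climbing; Gen: genetic algorithm; Gibbs: Gibbs sampling; a sequence that several methods proposed may carry one label only). The scFvs were displayed on barcoded MATa yeast, the peptide on MATalpha yeast. The frequency of each diploid, read from paired DNA barcodes, reflects how well the two displayed proteins bind. The ratio of observed to expected reads was calibrated, replicate by replicate, on BCL2-family standards whose Kd was known from biolayer interferometry. There are six technical replicates.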

The parent's light chain CDRs are KSSQSVLYESRNKNSVA, WASTRES, QQYHRLPLS; each variant's own CDRs replace them letter for letter. The read-out is the apparent dissociation constant on a log10 scale (nM): the lower, the stronger. A mean of the replicates is given; it leaves out those without a signal. Where no diploid with the target was found in any replicate, the entry reads "nd": below detection, most likely a poor binder, though not proof of it.

CDR-L1 | CDR-L2 | CDR-L3 | group | mean, log10 nM | replicates with signal
KLSQSVLYESRNKNSVA | WASTRES | QQYHRLPIS | Ctrl | 0.76 | 6 of 6
KSSISYLYESRNINSVA | EASQREQ | QQYHRLPLS | GP_HC | 0.24 | 6 of 6
KVSQSVEYEDRNKNSVA | QASQRCS | QQYHRLPLS | GP_Gibbs | -0.09 | 6 of 6
KLSQSEPYEDRNKNSVA | NASYRCS | QQYHRLPLH | GP_Gibbs | 0.66 | 6 of 6
KVSQSGPYDSRNKNAVA | SASTRES | QQYHRLPLS | Ctrl | -0.14 | 6 of 6
MLSQMWALGSKVSNSVA | QASMRFN | QQYHRLPLI | En_Gen | 2.71 | 5 of 6
KSSQSVLYSSRNKNSVA | WANTRES | QQYHRLPLS | Ctrl | 2.33 | 1 of 6
IVSQLMIWGMHLKNSIA | EAQTRLN | QQYDRLPLF | En_Gen | nd | 0 of 6
MMLSHSLEVQNIQNAVA | EASMVYD | QQYGSLPLS | En_Gibbs | nd | 0 of 6
KFQQMVMMGDRNKNSVA | WASTRLQ | QQYHRLPLS | GP_Gibbs | 1.86 | 6 of 6
KSSQSDLYESRNSNSVA | HASTRES | QQYHRLPLS | Ctrl | 0.22 | 6 of 6
MFSQLFMYGSRNYNSVA | QASTRED | QQYHRLPLI | En_HC | 0.77 | 6 of 6
KFSQSVLYESRNKNSVA | DASTRMS | QQYHRLPLS | GP_Gen | -0.32 | 6 of 6
KSSQSVFYESRNKPSVA | SASLRES | QQYHRLPLG | Ctrl | 1.67 | 2 of 6
KLSQSYEYESNNSNSVA | NASQREH | QQYHRLPLS | GP_Gibbs | 1.12 | 6 of 6
KSMQSVLYESENRNSVA | SASTRES | QQYHRDPLS | Ctrl | 0.81 | 6 of 6
KYSQLNLYEQRNFNSVA | NASYRES | QQYHRLPLS | GP_Gibbs | 0.02 | 6 of 6
HFQHLGFGDFAWANNIA | ERSQVCE | QQYFRLPLG | En_Gibbs | 0.95 | 6 of 6
LLWQDFYNGRSQANAVA | EGNQLAD | QQYARLPLV | En_Gibbs | 0.47 | 6 of 6
TLTQVQGMESHNKNSVA | DLSTRGN | QQYHRLPLS | En_HC | 0.36 | 6 of 6
KSLQSVLYESRNKNSVA | EASTRED | QQYHRLPLS | En_HC | 0.49 | 6 of 6
KQPQEKLYESRNKNSVA | DASTRES | QQYHRLPLS | GP_HC | -0.15 | 6 of 6
KLEQSVLYESRNKNSVA | NASTREM | QQYHRLPLS | GP_Gen | -0.54 | 6 of 6
KLSQSDLYESRNSNSVA | HASTRES | QQYHRLPLS | GP_Gen | -0.04 | 6 of 6
VSSQSVLNESRNKNSVA | DASTRES | QQYHRLPLS | Ctrl | 0.61 | 6 of 6
KSSQSVLYESRNKNSVA | SASTRES | QQYHRLPLS | Ctrl | 0.76 | 6 of 6
KLSGSELYESRNKNSVA | NASTRMS | QQYHRLPLS | GP_Gen | -0.35 | 6 of 6
NLAMAYEQGILIKNNIA | SSNLREN | QQYEHLPLI | En_Gibbs | 0.52 | 6 of 6
KSSISELYESMNKNSVA | EASTRES | QQYHRLPLS | GP_HC | 1.67 | 6 of 6
KSSASYLYESRNKNSVA | EASTRES | QQYHRLPLM | GP_HC | 0.49 | 6 of 6
IVSQLMLWGMRHKNSIA | EASTRLN | QQYERLPLF | En_Gen | 0.78 | 2 of 6
NLKENNVDNQTFYSNIA | EADQREK | QQYYRLPLQ | En_Gibbs | 2.52 | 6 of 6
MISQLYNMGSFAINSVA | QASERNT | QQYDRLPLI | En_Gen | 0.94 | 6 of 6
HLMPLNLHYTETLNSVA | EAEERQE | QHYARLPLM | En_Gibbs | 1.15 | 6 of 6
MISNVMNTLTRYGNNVA | DLQNRED | QQYFRLPLS | En_Gen | 0.68 | 6 of 6
KVSQSVLYEERNKNSVA | DASTRES | QQYHRLPLS | GP_Gen | 0.44 | 6 of 6
NFSQMVLTGSTLRNSVA | HASTREQ | QQYHRLPLI | En_HC | 1.40 | 6 of 6
TISQSLYWESRNKNSVA | QTSTREE | QDYDRLPLS | En_HC | 1.78 | 6 of 6
QITQVQQYDTPNTYNVA | DARVSGR | QQYSQLPLT | En_Gibbs | 1.65 | 1 of 6
HLSESVLAQSKMKNSVA | ENSTRES | QQYDRLPLS | En_HC | 2.55 | 4 of 6
TISQSWNMTSRGKNSVA | QAEMREE | QQYDRLPLS | En_HC | 2.20 | 6 of 6
MISDLTMIGSRNKNSVA | DLSTRGS | QQYHRLPLS | En_HC | 0.11 | 6 of 6
KLSQKWLYESRNKNNVA | NASCREQ | QQYHRLPLS | GP_Gibbs | -0.22 | 6 of 6
KFQQAWLYESRNKNSVA | NASCRES | QQYHRLPLS | GP_Gibbs | 0.15 | 6 of 6
KVGQGVLYESRNKNSVA | GASMRES | QQYHRLPLS | GP_HC | 0.25 | 6 of 6
HSSDSVLYESRNKNSVA | WASTRES | QQYHRLPLS | Ctrl | 2.19 | 1 of 6
KIGSGTNGEKFQSNSVA | QAETREE | QQYHRLPLS | En_HC | 0.56 | 6 of 6
TISQMWFIESKNRNNVA | EMTTREQ | QDYDRLPLS | En_HC | 1.29 | 6 of 6
KSSQSLPYESRNKNSVA | WASTRES | QLYHRLPLS | Ctrl | 2.23 | 5 of 6
KVKQSWLYESRMSNNVA | NASLRES | QQYHRLPLS | GP_Gibbs | -0.15 | 6 of 6
MMSQVTQSGMRHRNNVA | QTSMREP | QQYDRLPLI | En_Gen | 1.17 | 6 of 6
KLSQSVEYESRNKNSVA | NASQRLS | QQYHRLPLS | GP_Gen | 0.14 | 6 of 6

Nonspecific signal, from three strains lacking the peptide, appeared in 4% of pairings of all light chain designs, centred on 2.64 (5% of these signals below 1.59); values are not corrected for it. In the paper, a design with two or fewer of six values counts as a poor binder. Of ten entries with the parent sequence, four were seen in most replicates (averages 0.34 to 2.37), three in one and three in none, so single entries are noisy. The range of this assay differs from that of the first round, and the authors advise against merging the two.

Data: MIT Lincoln Laboratory AlphaSeq set, Li et al. 2023, doi:10.1038/s41467-023-39022-2, as distributed in FLAb.